Bioassay records (PubChem BioAssay)
An excerpt weighted towards active compounds, which were near 2.5% of everything screened.
Anesthetic bind – binds horse apoferritin like a general anesthetic. actives 0.074% (n = 350,000). P02791. AID 485281. apoferritin/1-aminoanthracene competitive binding, fluorescence. Potency, µM (titrated, usually from 77.5 µM), for inactives: at the top dose activity change, negative = displacement, most hits filed as inhibitors; note: potency is the fitted concentration of half-maximal effect; % is set by controls: 0 for no effect and ±100 for the full control effect; nearly all actives have a fitted effect of over 20% in size
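Horse-spleen apoferritin (10 uM) was mixed with 50% saturated 1-aminoanthracene in PBS, exposed to compounds for 10 min at room temperature, and read for fluorescence (ex 380 nm, em 535 nm). Competitive displacement was fitted with a four-parameter Hill equation.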
TrxR1 substrate – is turned over as a substrate by rat TrxR1. actives 0.01% (n = 390,000). AID 588456. purified TrxR1 substrate turnover, NADPH consumption readout. Potency, µM (series often up to 114 µM), for the others: top-dose activity change, negative = substrate turnover. O89049; note: potency is the fitted concentration of half-maximal effect; % is set by controls: 0 for no effect and ±100 for the full control effect; nearly all actives have a fitted effect of over 50% in size
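Rat TrxR1, dispensed at 90 nM, was prereduced with 400 uM NADPH (final) for 5 min at ~22 deg C, then incubated with compound 15 min before 400 uM selenite. A first-read NADPH fluorescence drop versus no-compound background flagged substrates.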
rTrxR1 inhibitor – blocks rat thioredoxin reductase 1; recombinant rTrxR1, NADPH fluorescence consumption, selenite substrate; Potency, µM (series often up to 114 µM), inactives show top-dose activity change, negative = inhibition, hits mostly inhibitors; actives 1% (n = 390,000); note: potency is the fitted concentration of half-maximal effect; % is set by controls: 0 for no effect and ±100 for the full control effect; nearly all actives have a fitted effect of over 65% in size
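Rat TrxR1 (90 nM in the dispensed reagent) was pre-reduced with 400 uM NADPH for 5 min at room temperature, then incubated with compound for 15 min. After 400 uM selenite was added, NADPH fluorescence (Ex 340/Em 450 nm) was followed for 8 min.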
miR-21 reporter – raises the signal of a miR-21 reporter | HeLa miR-21 FLuc reporter, luciferase, 48 h | Potency, µM (doses to about 38.3 µM), for the others: at the highest dose reporter change, positive = more light | 340,000 tested, under 10 active | AID 2288; active = well fitted rising curve with a large enough effect; inconclusive = small, poorly fitted or top-dose-only effect; inactive = no such curve, though single readings can be large or run the other way;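 also: % of control where 0% means no effect; miR-21 action dims this reporter so a rising signal means less miR-21 action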
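Compounds were titrated across several concentrations (up to approximately 40 uM) and incubated 48 hours with HeLa miR-21-FLuc reporter cells (miR-21 target sequence downstream of FLuc, endogenous miR-21). Readout was firefly luciferase luminescence after lytic detection reagent.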
ClpP mod – qHTS Assay for Activators of ClpP; purified B. subtilis ClpP, FRET peptide cleavage, 20 min; Potency, µM (highest dose often 57.5 µM), for inactives: at the top dose activity change, negative = active; ATP-dependent Clp protease proteolytic subunit (Bacillus subtilis (strain 168)), P80244; actives 1.9% (n = 340,000); active = well fitted falling curve with a large enough effect; inconclusive = small, poorly fitted or top-dose-only effect; inactive = no such curve, though single readings can be large or run the other way; note: potency is the fitted concentration of half-maximal effect; the source files actives as falling curves though it sought activators and does not explain the sign; nearly all actives have a fitted effect of over 65% in size
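Buffer: 100 mM Tris/HCl pH8, 100 mM KCl, 0.05% low protease BSA, 2.5% glycerol, 0.01% Tween-20. ClpP 10 microg/mL final; 20 min RT; delta FRET normalized to ADEP and DMSO controls.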
Numbers without * were called inactive; ? = inconclusive; . = no result given; [ ] = remark or other dose. Unless noted, calls come from the whole dose curve; as a rule, active = well fitted curve in the direction sought with a large enough effect; inconclusive = small, poorly fitted or top-dose-only effect, or another doubt; inactive = no such curve, though single readings can be large; an effect the other way counts as inactive or inconclusive.

Protein sequences, listed by entry. Tags and fused reporters are not part of them.
ATP-dependent Clp protease proteolytic subunit (Bacillus subtilis (strain 168)), P80244, UniProt P80244, whole entry, looked up: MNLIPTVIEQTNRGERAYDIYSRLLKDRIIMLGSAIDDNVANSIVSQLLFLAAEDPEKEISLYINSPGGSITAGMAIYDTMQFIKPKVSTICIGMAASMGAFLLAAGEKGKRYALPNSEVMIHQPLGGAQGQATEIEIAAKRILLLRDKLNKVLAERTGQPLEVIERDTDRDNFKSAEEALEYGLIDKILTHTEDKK

SMILES	Anesthetic bind	TrxR1 substrate	rTrxR1 inhibitor	miR-21 reporter	ClpP mod
CCOC(=O)c1nn(-c2cccc(C)c2)c2nc(-c3ccccc3)c(C#N)c(=O)n12	-18.5%	34.1%[57.1 µM]	58.3%[57.1 µM]	-3.9%	31.6µM*
CCOC(=O)c1nn(-c2ccc(Cl)cc2)c2nc(-c3ccc(C)cc3)c(C#N)c(=O)n12	6.5%	121.4%	67.5%	-2.6%	25.1µM*
CCOC(=O)c1nn(-c2ccc(OCC)cc2)c2nc(CC(C)C)c(C#N)c(=O)n12	-3.6%	256.8%	443.1%	-7.3%	22.4µM*
O=C(CSc1nnc(CNC(=O)c2ccccc2)n1-c1cccc(Cl)c1)Nc1ccccc1F	22.6%	10.2%	30.9%	13.5%	-1.7%
Oc1cc(CNCc2ccccc2)c(O)cc1CNCc1ccccc1	.	-10.0%	79.4µM*	.	.
CN(C)C(=O)c1ccc(NC(=O)c2cc(-c3ccco3)nc3ccccc23)cc1	-12.5%	30.4%	39.8µM*	0.1%	?
CCN(CC)CCNC(=O)c1ccc(NC(=O)c2cc(-c3ccco3)nc3ccccc23)cc1	-9.9%	21.4%	?	0.5%	4.0%
COc1ccc(NC(=O)c2cc(-c3ccco3)nc3ccccc23)cn1	.	12.3%	17.8µM*	.	-13.1%
O=C(NC(=S)Nc1cccc(S(=O)(=O)NC2=NCCC2)c1)c1cc(-c2ccco2)nc2ccccc12	-10.6%	28.3%	25.1µM*	21.2%	.
COc1ccc(CNC(=O)COC(=O)c2cc(-c3ccco3)nc3ccccc23)cc1	-10.8%	.	.	1.6%	.
CCNC(=O)COC(=O)c1cc(-c2ccco2)nc2ccccc12	229.5%	29.0%	11.2µM*	-1.1%	3.7%
O=C(Nc1cccc(C(=O)N2CCN(c3ccc(Cl)cc3)CC2)c1)c1nsc2ccccc12	56.7%	-8.3%[57.1 µM]	8.5%[57.1 µM]	-6.7%	-4.7%
O=C1C(Nc2ccccc2)=C(N2CCCCC2)C(=O)c2ccccc21	?	5.8%	?	17.1%	9.8%
O=C(/C=C/c1ccc(O)cc1)c1ccc(NC2=C(N3CCCCC3)C(=O)c3ccccc3C2=O)cc1	-20.9%	-10.5%	44.7µM*	16.4%	6.7%
Cc1ccc2onc(CNC(=O)N3CCN(c4cccc(C)c4C)CC3)c2c1	1.4%	1.8%	20.3%	-3.1%	-0.2%
O=C(NCc1ccco1)c1ccccc1-c1ccccc1	-4.4%	4.9%	13.5%	-1.5%	-2.0%
Cc1scc(C(=O)NCc2ccco2)c1-c1ccccc1	?	-1.0%	14.1µM*	-4.9%	0.1%
O=C(NCc1ccco1)c1cnc2sccn2c1=O	5.8%	-4.2%	-12.8%	-7.0%	?
Cc1csc2ncc(C(=O)NCc3ccco3)c(=O)n12	4.8%	72.4%	-15.5%	-9.1%	20µM*
O=C(NCc1ccccc1)c1cnc(N2CCCCC2)c2ccccc12	-4.7%	-5.1%[57.1 µM]	11.7%[57.1 µM]	-35.7%	-25.4%
CCC1CCCCN1CC(=O)N1CCCc2c1c(=O)oc1ccc(OCc3ccccc3)cc21 (stereo not drawn)	?	7.8%	-4.1%	?	-28.2%
CN1CCCCCC1=Nc1ccc([N+](=O)[O-])cc1	.	3.9%[57.1 µM]	6.4%[57.1 µM]	.	11.2µM*
CN(C)CCCNc1cc(N2CCN(C3CCCCC3)CC2)c2noc3c2c1C(=O)c1ccccc1-3	?	-2.4%	-2.9%	?	-0.6%
Cc1c(Cl)cccc1-n1ncc(C(=O)N2CCC(C)CC2)c1C1CCN(C(=O)OC(C)(C)C)CC1	-4.4%	1.9%	2.0%	-6.5%	1.1%
Cc1cc(C)nc(NC(=O)c2cc(-c3ccc(C)s3)nc3ccccc23)c1	54.2%	69.8%	31.9%	-1.7%	15.8µM*
Cc1cccc(-c2cc(C(=O)Nc3cccnc3)c3ccccc3n2)c1	-15.4%	-3.3%	1.6%	11.3%	1.0%
Cc1ccc(-c2cc(C(=O)Nc3cccnc3)c3ccccc3n2)s1	196.0%	87.0%	15.7%	0.8%	15.8µM*
O=C(CCc1c[nH]c2ccccc12)Nc1ccc(S(=O)(=O)Nc2ncccn2)cc1	-4.9%	12.2%[57.1 µM]	24.9%[57.1 µM]	-1.6%	31.6µM*
CCC(CO)Nc1ncnc2c1cnn2-c1ccc(C)cc1 (stereo not drawn)	-8.8%	15.7%[57.1 µM]	17.4%[57.1 µM]	-11.8%	28.2µM*
Cc1ccc(-n2ncc3c(NC(C)c4ccccc4)ncnc32)cc1 (stereo not drawn)	-7.7%	1.2%[57.1 µM]	5.1%[57.1 µM]	-46.6%	4.1%
Cc1ccc(CSc2ncnc3c2cnn3-c2ccccc2)cc1	-0.1%	5.6%	11.7%	-6.7%	25.1µM*
Cc1ccc(-n2ncc3c(SCc4ccccc4)ncnc32)cc1	-3.4%	14.7%	37.3%[57.1 µM]	-63.1%	22.4µM*
Cc1cccc(NC(=O)C(c2ccccc2)N2Cc3ccccc3C2=O)c1C (stereo not drawn)	-1.4%	-9.9%	-1.7%	0.0%	0.7%
Cc1cc(C)nc(SCc2nc3nc(C)cc(C)n3c2Br)n1	?	82.1%	0.0%	-28.6%	28.2µM*
COc1ccc2c(CNCc3ccc(Cl)cc3)c(C(=O)O)n(Cc3ccccc3C)c2c1	-3.8%	-4.2%	11.2%	0.0%	-13.2%
C1=C(c2ccccc2)CCN(c2nc3ccccc3n3cnnc23)C1	-17.9%	13.6%	3.98µM*	-3.6%	?
NC(=O)c1c(NC(=O)COC(=O)c2ccc(S(=O)(=O)Nc3ccccc3)cc2)sc2c1CCCC2	-7.5%	7.8%[57.1 µM]	19.0%	0.4%	20µM*
CSc1cccc(NC(=O)CN2C(=O)COc3ccc(S(=O)(=O)N4CCC(C)CC4)cc32)c1	-0.2%	-11.1%	3.0%	8.3%	-0.4%
O=C(N/N=C/C=C/c1ccco1)C(O)c1ccccc1 (stereo not drawn)	.	-3.3%	12.6µM*	.	-3.0%
O=C(N/N=C/C=C/c1ccccc1)C(O)c1ccccc1 (stereo not drawn)	.	-8.1%	9.9%	.	0.2%
C/C(=N\NC(=O)Cc1cccn1C)c1ccco1	1.2%	-2.6%	?	-7.6%	.
Cn1cccc1CC(=O)N/N=C/C=C/c1ccco1	-4.5%	-4.4%	50.1µM*	-7.1%	-4.1%
O=C1CCCCc2sc(Br)c([N+](=O)[O-])c2N1	-9.3%	8.5%[57.1 µM]	10µM*	?	.
CCOC(=O)c1c(-c2ccc(Cl)cc2)cn2ccccc12	81.9%	59.9%	11.2%[57.1 µM]	-0.4%	31.6µM*
CCOC(=O)c1cnc2c(-c3ccc(Cl)cc3)cnn2c1C	-7.3%	12.8%	10.7%[57.1 µM]	-25.5%	.
Cc1ccccc1CNC(=O)CCCn1c(=O)c2cccn2c2ccccc21	13.7%	6.0%	22.3%	-0.2%	-9.2%
COCC(C)n1c(SCC(=O)N2CCc3ccccc3C2)nc2ccccc2c1=O (stereo not drawn)	-23.6%	1.3%[57.1 µM]	2.8%[57.1 µM]	10.4%	12.6µM*
COCC(C)n1c(SCC(=O)N2CCCCC2)nc2ccccc2c1=O (stereo not drawn)	-9.6%	8.3%[57.1 µM]	-0.7%[11.4 µM]	-10.0%	-0.5%

Part of the list above in order of count of non-hydrogen atoms, falling.
SMILES	Anesthetic bind	TrxR1 substrate	rTrxR1 inhibitor	miR-21 reporter	ClpP mod
CCN(CC)CCNC(=O)c1ccc(NC(=O)c2cc(-c3ccco3)nc3ccccc23)cc1	-9.9%	21.4%	?	0.5%	4.0%
COc1ccc(CNC(=O)COC(=O)c2cc(-c3ccco3)nc3ccccc23)cc1	-10.8%	.	.	1.6%	.
O=C(NCc1ccccc1)c1cnc(N2CCCCC2)c2ccccc12	-4.7%	-5.1%[57.1 µM]	11.7%[57.1 µM]	-35.7%	-25.4%
CCOC(=O)c1c(-c2ccc(Cl)cc2)cn2ccccc12	81.9%	59.9%	11.2%[57.1 µM]	-0.4%	31.6µM*
Cc1csc2ncc(C(=O)NCc3ccco3)c(=O)n12	4.8%	72.4%	-15.5%	-9.1%	20µM*
O=C(NCc1ccco1)c1cnc2sccn2c1=O	5.8%	-4.2%	-12.8%	-7.0%	?
